# UUG fidelity: modulators of start codon recognition fidelity in yeast; AID 602363; activity score, % at 18.7 µM; S. cerevisiae UUG-firefly luciferase reporter, luminescence/redox ratio; 0.13% of 350,000 active;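 active = replicate mean at a twofold rise or more, about +100% in these data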;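 note: firefly luciferase made from a UUG start codon reports start codon fidelity; reporter light over untreated wells divided by growth signal over untreated wells; some hits fall short of that in this replicate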
# DSG3 Ab inh: inhibitors of pemphigus antibody binding to human desmoglein-3 | DSG3-coupled beads, scFv-anti-DSG3-GFP binding, flow cytometry; hits give low values | AID 588358 | binding (percent of control), % at 10 µM | P32926 | 310,000 compounds, 0.48% hits;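 active = binding more than 3 SD below its plate's average and above zero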;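 note: hits lower antibody fragment binding to DSG3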
# Arrestin-AP2 inh: inhibitors of human beta-arrestin and AP2 interaction; 340,000 compounds, 0.31% hits; inhibition, % at 10 µM; FITC-arrestin peptide / GST-AP2 beads, flow cytometry; AP2 beta2 appendage carries R879A mutation;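 active = inhibition above a set limit, near 3 SD of compounds lacking own fluorescence, cut at about 54% in these data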;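 note: plate controls were DMSO wells for no effect and 5 µM unlabelled arrestin peptide for full effect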
#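 System: GST-AP2 R879A bound to glutathione beads, E. coli-expressed. Also added: 50 nM FITC-arrestin peptide. Schedule: compound with beads 12 min RT, then probe 1 h RT. Signal: bead flow cytometry, FITC channel. Read-out basis: percent response.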
# Rce1 inh: inhibitors of yeast Ras-converting enzyme. Q03530. yeast membranes, quenched prenylated peptide cleavage fluorescence. calls only. 290,000 compounds, 0.27% hits;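 active = fall in fluorescence gain of 50% or more versus controls, with final raw signal at or below 3038400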;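 note: plate controls were neutral control wells for no effect and wells lacking membranes for full effect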
# TbMetRS inhib: blocks T. brucei methionyl-tRNA synthetase activity; 360,000 compounds, 0.4% hits; purified T. brucei MetRS, ATP depletion, Kinase-Glo luminescence; inhibition, % at 11.9 µM;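 active = inhibition above a per-plate cutoff of the control wells' mean inhibition plus 3 SD, cut at about 5.5% in these data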;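 note: 0% = DMSO wells median and 100% = median of wells with control inhibitor compound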
#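 Material – parasite MetRS enzyme · Medium – HEPES-MgCl2-KCl buffer plus DTT, spermine, BSA, pyrophosphatase · Reagent – ATP, methionine and E. coli bulk tRNA substrates · Times – 15 min enzyme-compound preincubation, 2 h reaction, 10 min detection, 25 °C · Measured by – luminescence of leftover ATP · Evaluation – percent inhibition relative to median high and low control wells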
# TbMetRS confirm: Trypanosoma brucei MetRS inhibition confirmed. shares compounds with TbMetRS inhib. T. brucei MetRS enzyme, luminescence (ATP depletion). inhibition, % at 11.9 µM. 1,400 compounds, 93% hits. AID 624412; in the data active = inhibition above about 7%
# Jurkat tox: Jurkat T cell cytotoxicity for MetRS hits; shares compounds with TbMetRS inhib; Jurkat cells viability, ATP luminescence; inhibition, % at 8.3 µM; 1,400 compounds, 12% hits; AID 624413; in the data active = inhibition above about 15%;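 note: 0% = vehicle and 100% = reference inhibitor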
# TbMetRS FP orth: T. brucei MetRS inhibition, orthogonal assay; shares compounds with TbMetRS inhib; purified T. brucei MetRS, fluorescence polarization; inhibition, % at 11.9 µM; 1,400 compounds, 44% hits; AID 651607; in the data active = inhibition above about 17%;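 note: 0% = vehicle wells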
# The depositor's hits bear a star; i = inactive; . = not tested or not shown. Rows were chosen to be rich in hits. Some 1.2% of all compounds tested hit in one or more screens of this group.
Molecule	UUG fidelity	DSG3 Ab inh	Arrestin-AP2 inh	Rce1 inh	TbMetRS inhib	TbMetRS confirm	Jurkat tox	TbMetRS FP orth
O=C(CCC(=O)Nc1cccc([N+](=O)[O-])c1)N/N=C/c1cccs1	-10	103	-3	i	44*	69*	7	48*
CC(=O)Nc1ccc(NC(=O)C(C)c2cccc(C(=O)c3ccccc3)c2)cc1 (stereo not given)	.	105	6	i	0	.	.	.
CC(C(=O)Nc1ccc(O)cc1)c1cccc(C(=O)c2ccccc2)c1 (stereo not given)	.	102	39	i	22*	30*	19*	31*
CC(C)NC(=O)N(C)C[C@H]1Oc2ccc(NC(=O)Nc3cccc4ccccc34)cc2CC(=O)N([C@@H](C)CO)C[C@@H]1C	27	.	.	.	.	.	.	.
c1ccc2c(c1)nc(N1CCOCC1)c1c3ccccc3[nH]c21	.	100	5	i	12*	4	-3	5
c1ccc(CN2CCC(CNc3ncnc4ccccc34)C2)cc1 (stereo not given)	-10	.	-9	.	6.2*	28*	27*	16
c1ccc(CNc2ncnc3ccccc23)cc1	-14	92	-1	i	1	.	.	.
O=[N+]([O-])c1ccc(NC(=S)NCCc2ccc(Cl)cc2)cc1	.	111	-5	i	6.9*	13*	36*	47*
CCCCNc1nc(NCc2ccccc2)nc2ccccc12	.	.	.	.	10*	22*	62*	5
OCCNc1nc(Nc2ccccc2)nc2ccccc12	-17	105	-22	i	11*	31*	-1	8
C[C@H](CO)N1C[C@H](C)[C@@H](CN(C)S(=O)(=O)c2ccccc2)OCCCC[C@H](C)Oc2ccc(NC(=O)c3ccccc3)cc2C1=O	-4	.	.	.	.	.	.	.
Cc1noc(C)c1NC(=O)N(C)C[C@H]1Oc2ccc(NC(=O)Cn3cnnn3)cc2C(=O)N([C@@H](C)CO)C[C@@H]1C	-7	.	.	.	.	.	.	.
Cc1ccc2[nH]c3c(NCCCN4CCCC4=O)ncnc3c2c1	.	95	20	i	21*	36*	2	25*
c1coc(CNc2ncnc3nc[nH]c23)c1	-5	94	11	i	-1	.	.	.
Cc1ccc(-n2ncc3c(NCCCN4CCCC4=O)ncnc32)c(C)c1	.	104	8	i	-1	.	.	.

# Single records, as listed above. Order of values: UUG fidelity, DSG3 Ab inh, Arrestin-AP2 inh, Rce1 inh, TbMetRS inhib, TbMetRS confirm, Jurkat tox, TbMetRS FP orth
# Cc1noc(C)c1NC(=O)N(C)C[C@H]1Oc2ccc(NC(=O)Cn3cnnn3)cc2C(=O)N([C@@H](C)CO)C[C@@H]1C as listed: -7, ., ., ., ., ., ., .
# O=C(CCC(=O)Nc1cccc([N+](=O)[O-])c1)N/N=C/c1cccs1 as listed: -10, 103, -3, i, 44*, 69*, 7, 48*

# 3 entries out of the list, ordered by SMILES length, smallest number first.
Molecule	UUG fidelity	DSG3 Ab inh	Arrestin-AP2 inh	Rce1 inh	TbMetRS inhib	TbMetRS confirm	Jurkat tox	TbMetRS FP orth
c1ccc(CNc2ncnc3ccccc23)cc1	-14	92	-1	i	1	.	.	.
CC(=O)Nc1ccc(NC(=O)C(C)c2cccc(C(=O)c3ccccc3)c2)cc1 (stereo not given)	.	105	6	i	0	.	.	.
CC(C)NC(=O)N(C)C[C@H]1Oc2ccc(NC(=O)Nc3cccc4ccccc34)cc2CC(=O)N([C@@H](C)CO)C[C@@H]1C	27	.	.	.	.	.	.	.

# Next results:
Molecule	UUG fidelity	DSG3 Ab inh	Arrestin-AP2 inh	Rce1 inh	TbMetRS inhib	TbMetRS confirm	Jurkat tox	TbMetRS FP orth
Cc1ccc2[nH]c3c(NCc4ccco4)ncnc3c2c1	-6	95	-5	i	45*	54*	28*	26*
COc1cc(CNc2ncnc3c2[nH]c2ccc(C)cc23)cc(OC)c1	-4	94	-9	i	75*	84*	7	80*
CC(C)CC#Cc1ccc2c(c1)O[C@@H](CN(C)C(=O)c1ccccn1)[C@@H](C)CN([C@@H](C)CO)S2(=O)=O	1	.	.	.	.	.	.	.
C[C@H]1CN([C@@H](C)CO)C(=O)c2cccc(N(C)C)c2O[C@H]1CN(C)Cc1ccc(C(=O)Nc2ccccc2N)cc1	4	.	.	.	.	.	.	.
CC(=O)Nc1ccc(S(=O)(=O)N2CCC(Oc3ccc(-n4cnnn4)cc3)CC2)cc1	-2	98	-10	i	6.0*	15*	6	5
COc1ccc(NC(=O)Nc2cccc3c2O[C@H](CN(C)C(=O)Nc2ccccc2)[C@H](C)CN([C@@H](C)CO)C3=O)cc1	11	.	.	.	.	.	.	.
CC(C)NC(=O)CCCOc1ccc(Cl)cc1Cl	-7	105	4	i	6.3*	11*	-11	-2
O=C(COC(=O)CCCOc1ccc(Cl)cc1Cl)Nc1cccc(Cl)c1	.	.	4	i	31*	45*	1	49*
CCN(CC)C(=O)CCCOc1ccc(Cl)cc1Cl	.	.	-5	i	9.1*	16*	13	5
C#CCN(C)CCCOc1ccc(Cl)cc1Cl	-25	107	11	i	7.3*	18*	6	3
COc1ccc(CNC(=O)COC(=O)CCCOc2ccc(Cl)cc2Cl)cc1	.	100	31	i	0	.	.	.
C[C@@H]1CN([C@H](C)CO)C(=O)Cc2cc(NC(=O)Nc3ccc4c(c3)OCO4)ccc2O[C@@H]1CN(C)C(=O)Nc1ccc(F)cc1	4	.	.	.	.	.	.	.
C[C@@H]1CN([C@@H](C)CO)C(=O)CCCn2cc(nn2)CO[C@H]1CN(C)Cc1cccc(O)c1	-3	.	.	.	.	.	.	.
COc1ccc(CNC(=O)C[C@@H]2CC[C@H]3[C@H](COc4ccc(NC(C)=O)cc4C(=O)N3C)O2)cc1	-7	.	.	.	.	.	.	.
C=CCn1c(NC(=O)c2ccccc2Cl)c(C#N)c2nc3ccccc3nc21	.	96	7	i	6.8*	0	-2	6
CCCCn1c(NC(C)=O)c(C#N)c2nc3ccccc3nc21	-4	98	-4	i	0	.	.	.
C[C@H]1CN([C@@H](C)CO)C(=O)Cc2cc(NC(=O)CCN3CCOCC3)ccc2O[C@H]1CN(C)C(=O)Nc1cccc2ccccc12	14	.	.	.	.	.	.	.
O=C(NCC1CC1)[C@@H]1[C@@H](CO)[C@@H]2Cn3c(ccc(-c4ccccc4F)c3=O)[C@H]1N2Cc1ccncc1	-1	.	.	.	.	.	.	.
CCN1C(=O)C(CC(=O)Nc2ccc(OC)cc2)N(CCc2ccccc2F)C1=S (stereo not given)	.	.	-2	i	33*	34*	18*	21*
COc1ccc(NC(=O)CC2C(=O)N(C)C(=S)N2CCc2ccccc2F)cc1 (stereo not given)	.	98	33	i	35*	46*	1	20*
CCN1C(=O)C(CC(=O)Nc2ccc(OC)cc2)N(CCCN2CCN(c3ccc(OC)cc3)CC2)C1=S (stereo not given)	-2	105	7	i	-1	.	.	.
COc1ccccc1NC(=O)c1nnn(CC(=O)Nc2ccccc2)c1N	-11	.	30	.	0	.	.	.
COc1ccccc1NC(=O)c1nnn(CC(=O)Nc2cccc(SC)c2)c1N	3	64	6	.	6.0*	7.6*	-2	15
CCC(=O)N1C[C@H]2[C@@H](c3ccccc31)[C@@H](CO)N2C(=O)Nc1ccccc1F	-10	.	.	.	.	.	.	.
COc1cccc(CC(Cc2nc3ccccc3[nH]2)c2nc3ccccc3[nH]2)c1 (stereo not given)	-33	106	6	i	9.3*	12*	5	5
CC(C)COC(=O)Nc1nnc(Cc2ccccc2)s1	.	105	-2	i	10*	3	5	4
CC(C)Cc1nnc(NC(=O)Nc2ccccc2)s1	-9	.	-34	i	16*	32*	-4	11
